Earlier results as cited in patent US11224584B2, “Sleep apnea treatment” (The Regents of The University of Michigan, priority 2012, dated 2022).

In the case of “REBIF beta-interferon: subcutaneous recombinant interferon-beta-1a (Merck-Serono and Pfizer), disease-modifying drug used to treat MS”, the “Time it can be stored at room temperature” value is listed as “up to 30 days”.
